Data on 1 protein can be found in publication PMC7615931 (Science (New York, N.Y.), 2024).

The series deals with the molecule itself. In words: cryo-EM structure.

As usually defined, the stoichiometry N is the number of molecules, sites or subunits per partner or assembly.

B1: β-arrestin 1 (βarr1), purified (natural protein, UniProt P29066 1-418, looked up)
chain: MGDKGTRVFKKASPNGKLTVYLGKRDFVDHIDLVDPVDGVVLVDPEYLKERRVYVTLTCAFRYGREDLDVLGLTFRKDLFVANVQSFPPAPEDKKPLTRLQERLIKKLGEHAYPFTFEIPPNLPCSVTLQPGPEDTGKACGVDYEVKAFCAENLEEKIHKRNSVRLVIRKVQYAPERPGPQPTAETTRQFLMSDKPLHLEASLDKEIYYHGEPISVNVHVTNNTNKTVKKIKISVRQYADICLFNTAQYKCPVAMEEADDTVAPSSTFCKVYTLTPFLANNREKRGLALDGKLKHEDTNLASSTLLREGANREILGIIVSYKVKVKLVVSRGGLLGDLASSDVAVELPFTLMHPKPKEEPPHREVPESETPVDTNLIELDTNDDDIVFEDFARQRLKGMKDDKDEEDDGTGSPHLNNR
Turning to B1, the “stoichiometry N” value came to 2.
